Test results published in patent US20080293818A1, “Regulator of Physiological Function of Ghrelin and Use Thereof” (priority 2004, published 2008).

The chains behind the UniProt entries cited, without tags or fusion partners.
UniProt O08725, whole entry: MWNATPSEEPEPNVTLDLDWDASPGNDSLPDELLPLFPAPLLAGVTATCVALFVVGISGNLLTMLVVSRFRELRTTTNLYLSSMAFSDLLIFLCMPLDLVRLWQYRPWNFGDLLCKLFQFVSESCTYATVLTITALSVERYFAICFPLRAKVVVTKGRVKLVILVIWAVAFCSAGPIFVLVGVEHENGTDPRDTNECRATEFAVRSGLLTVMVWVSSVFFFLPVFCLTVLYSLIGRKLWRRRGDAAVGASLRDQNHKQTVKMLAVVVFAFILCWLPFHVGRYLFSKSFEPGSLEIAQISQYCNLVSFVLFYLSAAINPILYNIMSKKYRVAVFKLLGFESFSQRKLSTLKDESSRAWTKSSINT

Biological target: T1, rat GHS-R (ghrelin receptor) (Rattus norvegicus, UniProt O08725)
T1 construct: expressed in transfected cells
Experiment: Calcium mobilization assay of ghrelin in CHO-GHSR 62 cells
Assay type: cell-based
Method: Before the assay, CHO-GHSR 62 cells [D1] stably expressing rat GHS-R (ghrelin receptor) were plated for 12-15 hours in flat-bottom, black-walled 96-well plates (Corning Costar Corporation, Cambridge, Mass.) at 4×10^4 cells/well. Cells were then preincubated for 1 hour with 4 μM Flo-4-AM-fluorescent indicator dye (Molecular Probes, Inc., Eugene, Oreg.) dissolved in assay buffer (Hanks' balanced salts solution (HBSS), 10 mM HEPES, 2.5 mM probenecid) supplemented with 1% fetal calf serum (FCS). After washing four times with assay buffer, samples, each dissolved in 100 μl basic buffer with 0.01% bovine serum albumin, were added to the prepared cells. Changes in the intracellular calcium concentration were measured using a FLEX station (Molecular Devices, Sunnyvale, Calif.).
Using the ghrelin calcium-mobilization assay, the activity of n-heptanoyl ghrelin to stimulate GHS-R (ghrelin receptor) activity was examined.
Time courses of fluorescence changes induced by n-octanoyl ghrelin (closed circle), n-heptanoyl ghrelin (open circle), and n-hexanoyl ghrelin (closed triangle) in GHS-R-expressing cells are shown. Peptides (1×10^−8 M) were added at the time indicated by the arrow.

[1] = peptides 1×10^−8 M, GHS-R-expressing cells

n-heptanoyl ghrelin
[Ca2+]i response in GHS-R-expressing cells (peptide 1×10^−8 M): induced [Ca^2+]i increases
agonistic activity for GHS-R (AUC) relative to n-hexanoyl ghrelin [1]: three times higher
agonistic activity for GHS-R calculated from AUC of the response curve, relative to n-octanoyl ghrelin [1]: approximately 60%
